From publication PMC2852246 (Journal of nuclear medicine : official publication, Society …, 2010)

Experiment: Reversed-phase HPLC analysis of 30-min urine sample for metabolism
Type: in vivo, human
Settings: 30-min urine sample of one volunteer, single peak

^99mTc(CO)3-nitrilotriacetic acid [^99mTc(CO)3(NTA)]
metabolism / form excreted in urine: excreted unchanged in the urine
